The values that follow are results of earlier work, collected in EP4115885A1 (Charité - Universitätsmedizin Berlin, priority 2021, dated 2023).

By UniProt entry, the sequences of proteins in these tests, tags left out. Where a name states a change or a piece, a line headed by the entry shows the natural chain unless it says otherwise.
UniProt P32246: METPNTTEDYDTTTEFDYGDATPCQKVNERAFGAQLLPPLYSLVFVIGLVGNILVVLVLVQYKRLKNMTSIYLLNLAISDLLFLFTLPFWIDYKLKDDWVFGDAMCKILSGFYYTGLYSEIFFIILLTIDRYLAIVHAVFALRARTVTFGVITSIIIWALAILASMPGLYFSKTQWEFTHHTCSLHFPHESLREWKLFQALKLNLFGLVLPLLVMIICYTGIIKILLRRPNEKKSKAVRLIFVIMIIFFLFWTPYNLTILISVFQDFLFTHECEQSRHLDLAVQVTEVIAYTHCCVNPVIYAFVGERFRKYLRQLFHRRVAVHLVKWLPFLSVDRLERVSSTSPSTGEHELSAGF

The subject of one data set is human or animal CCR1. As to conditions: cited from earlier work.
The target in a further data set is CCR1 (Homo sapiens, UniProt P32246). As to conditions: cited from earlier work.
Data set [1] relates to CCR5, CCR2, CXCR1, CXCR2, or CXCR4. As to conditions: cited from earlier work.
For data set [2] the following is noted: vital organ systems including pulmonary function; cited from earlier work.
In data set [3] the test system is rat experimental model of autoimmune encephalitis (EAE). As to conditions: in vivo; cited from earlier work.
Data set [4] relates to rabbit renal transplant rejection model. The note with it: in vivo; cited from earlier work.
For data set [5], the system named is mouse renal fibrosis model. The note with it: in vivo; cited from earlier work.
Data set [6] concerns murine models of lung injury. As to conditions: mouse, in vivo; cited from earlier work.
Data set [7] has as its system MIP1-α-induced CD11b expression in peripheral blood monocytes. The note with it: healthy subjects, single doses; returned to baseline after discontinuation; cited from earlier work.
The conditions of data set [8]: human, in vivo, cited from earlier work.

As to `C[C@@H]1CN(Cc2ccc(F)cc2)CCN1C(=O)COc1ccc(Cl)cc1NC(N)=O` [BAY 86-5277, N-[5-chloro-2-[2-[(2R)-4-[(4-fluorophenyl)methyl]-2-methyl-1-piperazinyl]-2-oxoethoxy]phenyl]-urea], the binding affinity result in the data set on human or animal CCR1 was “high affinity”. Further, the “competition with 125l-labelled MIP-1α and RANTES” value with human or animal CCR1 was “effectively compete”. Moreover, at CCR1, the “leukocyte migration specifically related to the CCR1 receptor” value was “inhibiting leukocyte migration”. The “directed migration of cells in response to the ligands of CCR5, CCR2, CXCR1, CXCR2, or CXCR4” value in data set [1] is “did not affect”. The “overall results of safety pharmacology studies” value in data set [2] is given as “did not reveal effects that are expected to have an impact to the health of humans”. Further, the “activity in efficacy model” value in data set [3], in data set [4] and in [5] was “demonstrated activity” in each case. Further, the “effect of blockade of CCR1” value in [6] is on record as “beneficial”. Moreover, in [7], the “blockade of ex vivo MIP1-α-induced CD11b expression” value is recorded as “dose dependent blockade”. In data set [8] (po), the “proof-of-concept or evidence for clinical efficacy” value is given as “could not demonstrate proof-of-concept or evidence for clinical efficacy”. Besides, in data set [8], the “gastrointestinal disorders such as nausea, vomiting and diarrhoea (most common adverse events)” value was 5-20 % of patients.
